For test [1], the target named is human CSNK1D tagged with nanoluciferase (Homo sapiens (Human), UniProt P48730). Description: Whole Cell nBRET CSNK1D Binding Assay. Particulars: read-out: CSNK1D BRET IC50; living CHO cells stably expressing human CSNK1D-nanoluciferase; NanoBret tracer 130 nM; 2 hours 37° C. Background: BRET reads energy transfer from a luciferase to a nearby fluorophore.
The target in test [2] is human recombinant GST cleaved CSNK1D (Homo sapiens (Human), UniProt P48730). Description: Purified enzyme assay (ADP-Glo Kinase Assay). The class given is biochemical. As to conditions: read-out: ADP-Glo CSNK1D AC50; 2 nM CSNK1D, peptide substrate 150 μM, ATP 20 μM, 45 minutes room temperature. (ADP-Glo first removes unused ATP, then detects ADP through luciferase.)

Chains of the proteins cited; added tags and fusions are not shown.
UniProt P48730, whole entry: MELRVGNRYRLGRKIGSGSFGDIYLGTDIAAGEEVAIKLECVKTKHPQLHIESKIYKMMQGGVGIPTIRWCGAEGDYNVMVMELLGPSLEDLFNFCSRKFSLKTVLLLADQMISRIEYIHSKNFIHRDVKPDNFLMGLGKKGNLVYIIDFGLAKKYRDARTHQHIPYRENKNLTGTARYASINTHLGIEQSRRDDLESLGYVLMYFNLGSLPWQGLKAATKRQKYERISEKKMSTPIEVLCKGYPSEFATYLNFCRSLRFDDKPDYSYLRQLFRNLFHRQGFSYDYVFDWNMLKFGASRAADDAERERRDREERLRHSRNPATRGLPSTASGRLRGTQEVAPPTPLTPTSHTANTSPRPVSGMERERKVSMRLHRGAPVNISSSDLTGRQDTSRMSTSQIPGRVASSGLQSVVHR

As to `Cn1cc(-c2ccnc3ccncc23)c(-c2ccc(F)cn2)n1`, the IC50 in test [1] was found to be 4390 nM. Moreover, the AC50 in test [2] is 128 nM.

For orientation: IC50 means the concentration that inhibits the measured activity by half. A word on the AC50: it is the concentration at which the activity in the assay is half-maximal.

Source of the values: US20230339900A1, “CASEIN KINASE 1 DELTA MODULATORS” (Janssen Pharmaceutica NV, priority 2020, published 2023).
